Experimental data as given in patent US9458110B2, “Phenylpyrazole derivatives as potent ROCK1 and ROCK2 inhibitors” (BRISTOL-MYERS SQUIBB COMPANY, priority 2013, dated 2016).

Chains of the proteins cited; added tags and fusions are not shown.
UniProt O75116, whole entry, species assumed: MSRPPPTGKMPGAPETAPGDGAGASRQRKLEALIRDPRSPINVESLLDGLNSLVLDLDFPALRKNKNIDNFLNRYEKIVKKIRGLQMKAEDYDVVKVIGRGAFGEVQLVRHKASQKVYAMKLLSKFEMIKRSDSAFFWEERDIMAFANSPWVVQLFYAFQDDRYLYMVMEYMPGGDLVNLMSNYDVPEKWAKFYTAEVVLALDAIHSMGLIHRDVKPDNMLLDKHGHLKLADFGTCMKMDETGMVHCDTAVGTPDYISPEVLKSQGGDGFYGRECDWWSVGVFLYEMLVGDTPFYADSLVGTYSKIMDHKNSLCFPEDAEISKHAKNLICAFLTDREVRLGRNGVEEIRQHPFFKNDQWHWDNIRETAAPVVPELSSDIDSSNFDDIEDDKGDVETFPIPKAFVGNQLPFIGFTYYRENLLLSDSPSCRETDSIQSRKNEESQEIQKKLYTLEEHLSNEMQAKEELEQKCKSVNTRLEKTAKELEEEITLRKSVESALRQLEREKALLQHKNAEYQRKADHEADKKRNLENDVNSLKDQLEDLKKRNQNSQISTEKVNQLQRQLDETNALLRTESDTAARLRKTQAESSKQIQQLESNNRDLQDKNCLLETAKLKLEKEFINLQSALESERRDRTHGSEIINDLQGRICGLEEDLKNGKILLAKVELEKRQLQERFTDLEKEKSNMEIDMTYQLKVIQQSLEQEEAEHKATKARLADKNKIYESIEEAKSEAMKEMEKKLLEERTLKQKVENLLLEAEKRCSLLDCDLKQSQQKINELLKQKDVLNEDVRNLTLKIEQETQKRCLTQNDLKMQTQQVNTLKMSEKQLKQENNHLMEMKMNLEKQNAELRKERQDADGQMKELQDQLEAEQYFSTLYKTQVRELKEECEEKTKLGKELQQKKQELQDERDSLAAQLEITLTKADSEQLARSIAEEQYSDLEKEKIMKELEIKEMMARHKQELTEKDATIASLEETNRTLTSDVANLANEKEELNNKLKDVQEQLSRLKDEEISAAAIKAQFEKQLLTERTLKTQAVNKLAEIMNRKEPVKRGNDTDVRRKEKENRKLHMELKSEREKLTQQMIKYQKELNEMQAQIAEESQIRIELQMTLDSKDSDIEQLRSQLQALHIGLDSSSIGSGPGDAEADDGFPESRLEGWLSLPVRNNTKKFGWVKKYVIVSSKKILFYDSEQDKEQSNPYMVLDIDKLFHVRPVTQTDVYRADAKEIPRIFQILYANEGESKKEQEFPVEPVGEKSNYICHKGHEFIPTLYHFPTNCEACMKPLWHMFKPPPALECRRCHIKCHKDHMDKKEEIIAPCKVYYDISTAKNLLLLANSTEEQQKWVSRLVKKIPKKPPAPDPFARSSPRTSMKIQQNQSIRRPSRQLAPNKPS
UniProt Q13464, whole entry, species assumed: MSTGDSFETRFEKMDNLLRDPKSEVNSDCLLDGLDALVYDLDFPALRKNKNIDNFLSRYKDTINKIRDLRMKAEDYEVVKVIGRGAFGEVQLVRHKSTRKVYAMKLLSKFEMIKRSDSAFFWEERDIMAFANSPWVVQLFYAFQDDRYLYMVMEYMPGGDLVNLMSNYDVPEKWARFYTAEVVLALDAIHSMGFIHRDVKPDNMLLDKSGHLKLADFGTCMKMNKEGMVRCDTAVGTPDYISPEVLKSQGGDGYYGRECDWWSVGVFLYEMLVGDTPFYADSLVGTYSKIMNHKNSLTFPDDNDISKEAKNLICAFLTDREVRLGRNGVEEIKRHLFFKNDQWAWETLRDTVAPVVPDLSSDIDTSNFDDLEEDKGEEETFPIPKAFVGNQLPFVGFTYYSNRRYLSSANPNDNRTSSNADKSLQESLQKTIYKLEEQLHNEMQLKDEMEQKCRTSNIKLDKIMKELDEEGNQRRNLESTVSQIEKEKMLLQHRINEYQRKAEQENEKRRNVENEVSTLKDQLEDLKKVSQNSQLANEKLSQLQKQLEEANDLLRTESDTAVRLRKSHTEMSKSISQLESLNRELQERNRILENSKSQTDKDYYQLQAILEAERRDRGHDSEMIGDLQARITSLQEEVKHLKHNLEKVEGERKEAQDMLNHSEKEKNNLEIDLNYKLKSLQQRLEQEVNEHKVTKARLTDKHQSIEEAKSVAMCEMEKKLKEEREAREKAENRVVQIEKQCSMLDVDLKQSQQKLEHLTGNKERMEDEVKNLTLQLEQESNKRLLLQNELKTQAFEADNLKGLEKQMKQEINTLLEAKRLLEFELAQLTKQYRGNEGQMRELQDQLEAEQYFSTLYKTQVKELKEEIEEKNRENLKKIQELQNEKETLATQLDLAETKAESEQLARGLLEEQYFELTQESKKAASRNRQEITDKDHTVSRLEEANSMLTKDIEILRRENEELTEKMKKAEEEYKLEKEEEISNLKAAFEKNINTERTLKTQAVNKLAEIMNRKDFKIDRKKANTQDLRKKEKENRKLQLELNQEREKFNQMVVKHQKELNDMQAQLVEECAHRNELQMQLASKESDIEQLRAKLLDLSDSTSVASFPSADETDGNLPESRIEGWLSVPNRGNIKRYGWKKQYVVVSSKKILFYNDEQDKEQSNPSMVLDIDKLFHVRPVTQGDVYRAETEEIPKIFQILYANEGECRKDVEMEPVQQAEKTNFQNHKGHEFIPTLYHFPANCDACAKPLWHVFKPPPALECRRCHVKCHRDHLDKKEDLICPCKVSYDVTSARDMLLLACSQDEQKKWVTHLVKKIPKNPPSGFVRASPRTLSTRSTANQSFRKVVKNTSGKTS

Biological target: ROCK2 (Homo sapiens (Human), UniProt O75116)
Assay: ROCK assay (Caliper LABCHIP peptide phosphorylation), ROCK2;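 also: reaction stopped with EDTA, then phosphorylated and unphosphorylated peptide resolved by microfluidic electrophoresis, kinase inhibition computed at each compound concentration in dose-response series, DMSO under 2%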
Type: biochemical
Settings: 5 μM ATP, 1.5 μM peptide substrate

| SMILES | IC50 [nM] |
| --- | --- |
| COc1cc(C(=O)NC(C)Cc2ccc(F)cc2)ccc1-c1cn[nH]c1 (stereo not shown) [Example 111, N-[1-(4-fluorophenyl)propan-2-yl]-3-methoxy-4-(1H-pyrazol-4-yl)benzamide] | 21.2 |
| COc1cc(C(=O)NC(C)c2cc(F)cc(F)c2)ccc1-c1cn[nH]c1 (racemic) [Example 67, (+/−)-N-(1-(3,5-difluorophenyl)ethyl)-3-methoxy-4-(1H-pyrazol-4-yl)benzamide] | 9.29 |
| COc1cc(C(=O)NC(CNC(=O)OC(C)(C)C)c2ccccc2)ccc1-c1cn[nH]c1 (stereo not shown) [Example 11, tert-butyl (2-(3-methoxy-4-(1H-pyrazol-4-yl)benzamido)-2-phenylethyl) carbamate] | 36 |
| CC(O)c1cc(C(=O)N[C@H](C)c2ccc(F)cc2)ccc1-c1cn[nH]c1 (stereo partly drawn) [Example 268, N-((R)-1-(4-Fluorophenyl)ethyl)-3-(1-hydroxyethyl)-4-(1H-pyrazol-4-yl)benzamide] | 48.1 |

Biological target: ROCK1 (Homo sapiens (Human), UniProt Q13464)
Assay: ROCK assay (Caliper LABCHIP peptide phosphorylation), ROCK1;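 also: Read-out is separation of phosphorylated from unphosphorylated peptide, with kinase activity inhibition computed at every concentration of a dose-response series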
Type: biochemical
Settings: 5 μM ATP, 1.5 μM peptide substrate

| SMILES | IC50 [nM] |
| --- | --- |
| CC(O)c1cc(C(=O)N[C@H](C)c2ccc(F)cc2)ccc1-c1cn[nH]c1 (single isomer, unassigned) [Example 270] | > 2000 |
| CC(O)c1cc(C(=O)N[C@H](C)c2ccc(F)cc2)ccc1-c1cn[nH]c1 (stereo partly drawn) [Example 268, N-((R)-1-(4-Fluorophenyl)ethyl)-3-(1-hydroxyethyl)-4-(1H-pyrazol-4-yl)benzamide] | 181 |
| C[C@@H](NC(=O)c1cc(F)c(-c2cn[nH]c2)cc1OCCN(C)C)c1ccccc1 [Example 310, 2-[2-(dimethylamino)ethoxy]-5-fluoro-N-[(1R)-1-phenylethyl]-4-(1H-pyrazol-4-yl)benzamide] | 1110 |
